# Ab-95 light chain CDR variants: yeast mating affinities

Source: Engelhart et al. 2022 (doi:10.1038/s41597-022-01779-4), MIT Lincoln Laboratory and A-Alpha Bio; data file from the FLAb repository.

Binding partner: SARS-CoV-2 spike HR2 peptide, sequence PDVDLGDISGINAS.

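The starting antibody came from a phage panning campaign against this peptide. Variants in AAYL52 differ from the parent at up to three CDR positions; double and triple changes were sampled at random. In AlphaSeq, yeast of one mating type display the scFv and yeast of the other type display the target. Mating (16 h, 30 °C) was followed by selection of diploids and sequencing of their barcodes. Scores were corrected for input abundance and mapped to Kd with protein pairs of known affinity run in the same pool. Mating was done three times.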

Parent: Ab-95, a human scFv built as VH, the linker GGGGSGGGGSGGGGS, VL. Only the CDRs of the light chain vary.
VH: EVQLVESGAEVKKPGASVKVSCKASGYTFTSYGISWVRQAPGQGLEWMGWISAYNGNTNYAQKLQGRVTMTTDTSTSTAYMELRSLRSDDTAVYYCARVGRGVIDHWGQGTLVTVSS
VL: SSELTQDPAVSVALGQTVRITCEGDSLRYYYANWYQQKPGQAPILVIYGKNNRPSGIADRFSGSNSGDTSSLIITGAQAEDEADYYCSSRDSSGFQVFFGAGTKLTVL

The whole VL of each variant is written out.
The read-out is the apparent dissociation constant on a log10 scale (nM): the lower, the stronger.
Where no diploid with the target was found in that replicate, the entry reads "n.d.": below detection, most likely a poor binder, though not proof of it.
Parent in this assay: reference entry 2.31, copy in this library 2.25.
Empty control strains, which show no peptide, gave a signal in 28% of pairings with library AAYL52; the median was 3.91 and 95% of these signals were weaker than 2.90. No background was subtracted. Also given: how often the same scFv was detected with the empty control strains, with their mean in brackets.

VL	log10 Kd, replicates	signal with controls
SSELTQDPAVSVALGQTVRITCEGDSLRYIYAEWYQQKPGQAPILVIYGKNNRPSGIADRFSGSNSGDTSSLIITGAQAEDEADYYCSSRDSKGFQVFFGAGTKLTVL	n.d. / n.d. / n.d.	0 of 9
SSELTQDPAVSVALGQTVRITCEGDSLRYYYANWYQQKPGQAPILVIYGKINRCSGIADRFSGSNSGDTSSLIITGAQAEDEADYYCSSRDSSGGQVFFGAGTKLTVL	4.02 / n.d. / n.d.	4 of 9 (4.42)
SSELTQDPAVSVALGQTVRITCEGDSLRYTYANWYQQKPGQAPILVIYGGNNRPSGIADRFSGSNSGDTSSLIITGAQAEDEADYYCSSRDSSYFQVFFGAGTKLTVL	3.14 / 2.99 / 2.60	4 of 9 (4.09)
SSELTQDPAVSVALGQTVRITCEGSCLRYYYANWYQQKPGQAPILVIYGKNNRPSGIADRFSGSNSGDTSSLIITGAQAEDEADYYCSSRDSPGFQVFFGAGTKLTVL	5.45 / 3.81 / 3.58	1 of 9 (3.00)
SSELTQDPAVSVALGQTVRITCEGDSLRYYYANWYQQKPGQAPILVIYGKNNRPSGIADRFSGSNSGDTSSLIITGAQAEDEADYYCSSRHSSGFILFFGAGTKLTVL	2.35 / 2.40 / 2.16	6 of 9 (3.92)
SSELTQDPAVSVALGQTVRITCEGDSLRYYYANWYQQKPGQAPILVIYGKNLRPSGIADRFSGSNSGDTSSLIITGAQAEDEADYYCSSRDDQGFQVFFGAGTKLTVL	3.23 / 2.52 / 2.55	1 of 9 (4.72)
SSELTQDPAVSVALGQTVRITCEGDRLRYYYANWYQQKPGQAPILVIYGRNNRPSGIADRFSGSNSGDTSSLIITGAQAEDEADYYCSSFDSSGFQVFFGAGTKLTVL	n.d. / 4.73 / 4.54	5 of 9 (4.51)
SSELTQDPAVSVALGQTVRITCEGDSLLYCYANWYQQKPGQAPILVIYGKNNRPSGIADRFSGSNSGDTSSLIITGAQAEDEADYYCSSRDSSGFQDFFGAGTKLTVL	n.d. / n.d. / n.d.	1 of 9 (5.26)
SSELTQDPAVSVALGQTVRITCEGDSLRYYYANWYQQKPGQAPILVIYGKNNRPSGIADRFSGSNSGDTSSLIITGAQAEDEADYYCHSRASSGFCVFFGAGTKLTVL	2.44 / 1.94 / 1.63	2 of 9 (4.10)
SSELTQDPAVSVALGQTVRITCEGDSLRYYYANWYQQKPGQAPILVIYGPNNRLSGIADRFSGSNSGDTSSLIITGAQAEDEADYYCSSRDSSGFQVFFGAGTKLTVL	3.37 / 3.55 / 3.24	3 of 9 (3.96)
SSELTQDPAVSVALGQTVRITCEHDMLRYYYANWYQQKPGQAPILVIYGKNNRPSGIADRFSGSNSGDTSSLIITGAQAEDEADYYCSSRDSSGFQVFFGAGTKLTVL	2.82 / 3.81 / 3.13	2 of 9 (3.45)
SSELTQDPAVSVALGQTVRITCEGDSLRYYYANWYQQKPGQAPILVIYCKNNRPSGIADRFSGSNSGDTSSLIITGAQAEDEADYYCSSRDSSGNQFFFGAGTKLTVL	n.d. / 4.58 / 3.85	3 of 9 (3.99)
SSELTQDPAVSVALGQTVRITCEGDSLRYYPANWYQQKPGQAPILVIYGKNNRPSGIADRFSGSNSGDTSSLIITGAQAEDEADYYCSGLDSSGFQVFFGAGTKLTVL	2.13 / 2.61 / 3.16	4 of 9 (4.28)
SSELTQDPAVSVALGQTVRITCEGDSLRYYYNNWYQQKPGQAPILVIYGKNNRPSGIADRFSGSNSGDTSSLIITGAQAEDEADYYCSSRDSSMFPVFFGAGTKLTVL	3.50 / 3.76 / 2.51	3 of 9 (3.59)
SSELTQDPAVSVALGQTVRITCEGDSLRYYYANWYQQKPGQAPILVIYGKNNRPSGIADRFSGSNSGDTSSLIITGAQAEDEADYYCSSRDHSGLQGFFGAGTKLTVL	2.92 / 2.60 / 2.41	5 of 9 (4.21)
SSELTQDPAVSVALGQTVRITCEGDELRYYYANWYQQKPGQAPILVIYGKNNRPSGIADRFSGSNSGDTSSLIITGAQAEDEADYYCSSRDSSEFQVFFGAGTKLTVL	4.25 / n.d. / n.d.	2 of 9 (3.33)
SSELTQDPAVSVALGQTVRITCEGDSLRYYYAMWYQQKPGQAPILVIYGKNFRPSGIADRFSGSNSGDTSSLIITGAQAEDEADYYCSSRDSSGFQVVFGAGTKLTVL	3.34 / 5.11 / 4.06	6 of 9 (4.05)

A selection of 2 entries from above:

VL,"log10 Kd, replicates",signal with controls
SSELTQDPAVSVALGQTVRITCEGDSLRYTYANWYQQKPGQAPILVIYGGNNRPSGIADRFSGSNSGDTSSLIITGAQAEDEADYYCSSRDSSYFQVFFGAGTKLTVL,3.14 / 2.99 / 2.60,4 of 9 (4.09)
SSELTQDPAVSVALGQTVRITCEGDSLRYYYANWYQQKPGQAPILVIYCKNNRPSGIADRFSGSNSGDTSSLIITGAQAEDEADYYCSSRDSSGNQFFFGAGTKLTVL,n.d. / 4.58 / 3.85,3 of 9 (3.99)